Source: patent US8822451B2, “Modulators of ATP-binding cassette transporters” (Vertex Pharmaceuticals Incorporated, priority 2005, dated 2014)

Molecular target: […]F508-CFTR (Homo sapiens, UniProt P13569, DEL508-508)
Assay: Assay results of Table 3: ΔF508-CFTR modulation, membrane potential optical assay (assay format not stated)
Settings: NIH3T3 mouse fibroblasts stably expressing […]F508-CFTR (optical assays)
Text: A. Membrane Potential Optical Methods for Assaying […]F508-CFTR Modulation Properties of Compounds
The optical membrane potential assay utilized voltage-sensitive FRET sensors described by Gonzalez and Tsien (See, Gonzalez, J. E. and R. Y. Tsien (1995) “Voltage sensing by fluorescence resonance energy transfer in single cells” Biophys J 69(4): 1272-80, and Gonzalez, J. E. and R. Y. Tsien (1997) “Improved indicators of cell membrane potential that use fluorescence resonance energy transfer” Chem Biol 4(4): 269-77) in combination with instrumentation for measuring fluorescence changes such as the Voltage/Ion Probe Reader (VIPR) (See, Gonzalez, J. E., K. Oades, et al. (1999) “Cell-based assays and instrumentation for screening ion-channel targets” Drug Discov Today 4(9): 431-439).
These voltage sensitive assays are based on the change in fluorescence resonant energy transfer (FRET) between the membrane-soluble, voltage-sensitive dye, DiSBAC2(3), and a fluorescent phospholipid, CC2-DMPE, which is attached to the outer leaflet of the plasma membrane and acts as a FRET donor. […] The changes in fluorescence emission were monitored using VIPR™ II, which is an integrated liquid handler and fluorescent detector designed to conduct cell-based screens in 96- or 384-well microtiter plates. […]

Structure (SMILES): CC(C)Nc1nc(C(N)=O)cc(-c2ccccc2)n1
- Efficacy (efficacy range): ++ (++ corresponds to Efficacy between 100 and 50)
- EC50 (potency range): > 5 µM
